# Data from ChEMBL document CHEMBL5034004, “Discovery of M3 Antagonist-PDE4 Inhibitor Dual Pharmacology Molecules for the Treatment of Chronic Obstructive Pulmonary Disease” (J Med Chem, 2021).
# The chains behind the UniProt entries cited, without tags or fusion partners. Where a name states a change or a piece, a line headed by the entry shows the natural chain unless it says otherwise.
# UniProt P20309, whole entry: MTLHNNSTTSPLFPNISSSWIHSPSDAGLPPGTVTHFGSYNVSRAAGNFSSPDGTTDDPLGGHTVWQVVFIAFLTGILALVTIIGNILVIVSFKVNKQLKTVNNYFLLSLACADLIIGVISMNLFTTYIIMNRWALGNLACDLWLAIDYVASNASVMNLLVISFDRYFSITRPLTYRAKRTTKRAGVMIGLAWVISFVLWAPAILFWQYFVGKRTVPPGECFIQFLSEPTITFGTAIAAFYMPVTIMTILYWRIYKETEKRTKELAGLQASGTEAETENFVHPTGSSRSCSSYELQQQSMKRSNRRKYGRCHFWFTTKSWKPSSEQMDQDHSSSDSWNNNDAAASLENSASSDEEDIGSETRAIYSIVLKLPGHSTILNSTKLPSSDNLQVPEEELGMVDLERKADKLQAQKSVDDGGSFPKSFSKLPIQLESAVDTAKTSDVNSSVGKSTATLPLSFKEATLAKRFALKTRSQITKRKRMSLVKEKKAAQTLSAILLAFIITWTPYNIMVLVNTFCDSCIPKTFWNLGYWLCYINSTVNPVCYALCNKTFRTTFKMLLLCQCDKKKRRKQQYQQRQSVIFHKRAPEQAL
# UniProt Q07343: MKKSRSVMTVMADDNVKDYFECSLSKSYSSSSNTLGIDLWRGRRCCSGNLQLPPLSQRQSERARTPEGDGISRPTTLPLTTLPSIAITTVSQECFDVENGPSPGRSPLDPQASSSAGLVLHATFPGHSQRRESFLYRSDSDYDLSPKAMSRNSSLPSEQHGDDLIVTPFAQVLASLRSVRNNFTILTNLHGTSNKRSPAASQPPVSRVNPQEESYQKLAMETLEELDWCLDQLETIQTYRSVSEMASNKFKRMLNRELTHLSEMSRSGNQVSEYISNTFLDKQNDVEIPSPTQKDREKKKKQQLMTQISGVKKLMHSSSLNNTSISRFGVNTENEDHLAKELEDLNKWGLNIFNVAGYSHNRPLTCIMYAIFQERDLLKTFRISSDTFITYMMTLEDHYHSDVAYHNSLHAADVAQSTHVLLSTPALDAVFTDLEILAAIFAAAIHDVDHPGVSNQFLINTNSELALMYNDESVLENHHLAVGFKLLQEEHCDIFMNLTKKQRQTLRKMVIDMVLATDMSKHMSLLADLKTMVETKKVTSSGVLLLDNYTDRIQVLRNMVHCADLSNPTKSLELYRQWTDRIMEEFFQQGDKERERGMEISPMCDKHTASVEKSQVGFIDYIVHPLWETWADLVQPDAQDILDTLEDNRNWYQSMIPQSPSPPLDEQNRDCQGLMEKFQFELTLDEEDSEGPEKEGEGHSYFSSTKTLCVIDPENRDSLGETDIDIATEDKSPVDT
# Assays:
# [1] = target: Muscarinic acetylcholine receptor M3 (Homo sapiens, UniProt P20309); experiment: Displacement of [3H]-N-methyl Scopolamine Chloride from human M3 receptor membranes incubated for 2 hrs by scintillation counting analysis; type: cell membranes, Cell membrane
# [2] = target: 3',5'-cyclic-AMP phosphodiesterase 4B (Homo sapiens, UniProt Q07343); experiment: Inhibition of human recombinant PDE4B2 assessed as […] in cAMP level incubated for 2 hrs by LANCE Ultra cAMP TR-FRET assay
# [3] = Antiinflammatory activity in human PBMCs assessed as inhibition of LPS-induced TNF-alpha release measured after 18 hrs by ELISA; type: functional, tissue-based; conditions: pbmc
Ki [1],IC50 [2],pIC50 [3],Structure (SMILES)
10 nM,–,–,COc1ccc([C@H](Cc2c(Cl)c[n+]([O-])cc2Cl)OC(=O)c2ccc(CNC(C(=O)OCC3CCN(C)CC3)c3ccccc3)s2)cc1OC (stereo in doubt; 91h)
2.51 nM,2.51 nM,–,COc1ccc([C@H](Cc2c(Cl)c[n+]([O-])cc2Cl)OC(=O)c2ccc(CNC(C(=O)OC[C@H]3CCN3C)c3ccccc3)s2)cc1OC (stereo in doubt; 91i)
0.316 nM,–,–,COc1ccc([C@H](Cc2c(Cl)c[n+]([O-])cc2Cl)OC(=O)c2ccc(CNC(C(=O)OCC3CCN(C)CC3)c3ccccc3)s2)cc1OC (stereo in doubt; 92h)
0.2 nM,1.26 nM,8.6,COc1ccc([C@H](Cc2c(Cl)c[n+]([O-])cc2Cl)OC(=O)c2ccc(CNC(C(=O)OC[C@H]3CCN3C)c3ccccc3)s2)cc1OC (stereo in doubt; 92i)
